Assay results: paper PMC8269116 (Journal of psychopharmacology (Oxford, England), 2019)

Chains of the proteins cited; added tags and fusions are not shown.
UniProt Q01959, whole entry: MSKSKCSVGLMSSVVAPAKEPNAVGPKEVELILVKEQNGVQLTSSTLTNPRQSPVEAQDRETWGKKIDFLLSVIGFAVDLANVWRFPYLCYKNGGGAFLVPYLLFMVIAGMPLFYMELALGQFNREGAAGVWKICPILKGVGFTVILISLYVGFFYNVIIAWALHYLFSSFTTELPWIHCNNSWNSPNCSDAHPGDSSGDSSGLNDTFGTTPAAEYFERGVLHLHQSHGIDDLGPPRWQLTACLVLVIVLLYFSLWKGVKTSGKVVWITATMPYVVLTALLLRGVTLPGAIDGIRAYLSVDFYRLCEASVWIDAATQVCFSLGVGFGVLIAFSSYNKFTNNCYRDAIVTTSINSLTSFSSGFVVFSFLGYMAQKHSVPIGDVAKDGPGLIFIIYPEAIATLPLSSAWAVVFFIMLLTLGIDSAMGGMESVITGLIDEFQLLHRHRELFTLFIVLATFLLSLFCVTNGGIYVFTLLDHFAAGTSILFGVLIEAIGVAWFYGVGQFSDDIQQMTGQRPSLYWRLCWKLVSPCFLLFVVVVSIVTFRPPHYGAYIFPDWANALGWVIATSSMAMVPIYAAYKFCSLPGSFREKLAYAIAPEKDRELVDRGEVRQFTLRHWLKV

Tests used:
DAT = DAT (Homo sapiens, UniProt Q01959); experiment: [3H]dopamine uptake inhibition in HEK 293 cells overexpressing human DAT; assay type: cell-based; settings: 1/DAT IC50 : 1/SERT IC50; mean and 95% confidence interval
5-HT2A receptor = settings: compared to MDMA; ref Rickli et al., 2015b; cited from earlier work

CC(N)Cc1ccc2c(c1)OCO2 (centres unmarked) [MDA, 3,4-methylenedioxyamphetamine, reference compound]
DAT/SERT ratio (DAT): 0.25 (0.17–0.38) | 5-HT2A receptor activation potency, fold more potent than MDMA (5-HT2A receptor): about 10 fold
